# Experimental melting point values from OPERA 2.9

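The OPERA project collected these measurements from public sources as training and test data for property models. The files give a single number for a compound and property, which may rest on several reports. Method, purity and exact conditions of the single measurements are not given. A value may pool stereoisomers or salt forms, and the file does not say which form was measured. Unmarked limits or estimates from the upstream databases cannot be ruled out.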

The melting point is given in degrees Celsius.
Cells with "–" have no entry in this list.
The databases behind each value are named after "via".

compound	name	melting point (°C)	via
Nc1nc2cc(Br)ccc2o1	Benzoxazole, 2-amino-5-bromo-	173	OCHEM
Clc1ccccc1Nc1nc2ccccc2s1	N-(2-chlorophenyl)-1,3-benzothiazol-2-amine	127	OCHEM
CCn1cc[n+](C)c1.O=S(=O)([O-])C(F)(F)F	1-Ethyl-3-methylimidazolium trifluoromethanesulfonate	-14.16	eChemPortal
CC1(C)CC2(CC(C)(C)N1)OC1(CCCCCCCCCCC1)NC2=O	–	230.3	eChemPortal
Nn1c(-c2ccc(Cl)cc2Cl)n[nH]c1=S	–	91	OCHEM
CCc1ccc(C)nc1N	3-Ethyl-6-methylpyridin-2-amine	46.5	OCHEM
S=c1[nH]nc(Nc2ccccc2)s1	1,3,4-Thiadiazole-2(3H)-thione, 5-anilino-	161	OCHEM
CCCCCCCC/C=C\CCCCCCCC(=O)OCCCCCCCCCC	9-Octadecenoic acid (9Z)-, decyl ester	1	eChemPortal
Nc1ccn(-c2ccccc2)n1	1-Phenyl-1H-pyrazol-3-amine	78	OCHEM
COc1ccc(-n2c(=S)[nH]c3ccccc32)cc1	1-(4-Methoxyphenyl)-1,3-dihydro-2H-benzimidazole-2-thione	214	OCHEM
O=S(=O)(c1ccc(F)cc1)N1CCNCC1	1-[(4-fluorophenyl)sulfonyl]piperazine	113	OCHEM
CCCCCCC(O)CCCCCCCCCCC(=O)[O-].CCCCCCC(O)CCCCCCCCCCC(=O)[O-].[Zn+2] (stereo not drawn)	Octadecanoic acid, 12-hydroxy-, zinc salt (2:1)	150	eChemPortal
O=C(O)c1ccc2c(c1)C(=O)N(CC1CCCO1)C2=O (stereo not drawn)	–	154	OCHEM
Nc1nc(-c2ccccn2)cs1	4-Pyridin-2-yl-thiazol-2-ylamine	136	OCHEM
CC(C(=O)O)n1cccn1 (stereo not drawn)	2-(1H-Pyrazol-1-yl)propanoic acid	97	OCHEM
Cc1cc([N+](=O)[O-])ccc1NC(=O)CCl	2-chloro-N-(2-methyl-4-nitrophenyl)acetamide	119	OCHEM
CC12CCCC(C)(CC1)C2=NO	1,5-Dimethylbicyclo[3.2.1]octan-8-one oxime	132.3	eChemPortal
O=C(O)c1ccccc1-n1cnnn1	2-(1H-tetrazol-1-yl)benzoic acid	192	OCHEM
O=C(O)CCCNS(=O)(=O)c1ccc2c(c1)OCCO2	–	121	OCHEM
Nc1ccc(-c2ccccc2)nn1	6-phenylpyridazin-3-amine	146	OCHEM
NC(=O)N[C@@H](CC(=O)O)C(=O)O	N-Carbamoylaspartic acid	174.5	PubChem
Cc1cc(C)c2nc(N)sc2c1	Benzothiazole, 2-amino-4,6-dimethyl-	136	OCHEM
Cc1oc(C)c(C(=O)O)c1C	2,4,5-trimethyl-3-furoic acid	132	OCHEM
C=CCOc1ccccc1C(=O)O	2-(allyloxy)benzoic acid	59	OCHEM
O=C1CCCCCN1C(=O)Nc1ccc(Cc2ccc(NC(=O)N3CCCCCC3=O)cc2)cc1	–	177	eChemPortal
COc1cc(OC)c(C(C)=O)cc1Cl	1-(5-Chloro-2,4-dimethoxyphenyl)ethan-1-one	135	OCHEM
Nc1ccnn1Cc1ccccc1	1-Benzyl-1H-pyrazol-5-amine	83	OCHEM
CCN(CC)CCC1(c2ccccc2)CCC(=O)NC1=O (stereo not drawn)	Phenglutarimide	126	OCHEM
O=C(CCl)NC(=O)OCc1ccccc1	benzyl chloroacetylcarbamate	114	OCHEM
CCN(CC)C(=O)c1ccc[n+](CCCS(=O)(=O)[O-])c1	–	191.1	eChemPortal
CC(=O)OCC(=O)[C@@]12OC(C)(C)O[C@@H]1C[C@H]1[C@@H]3CCC4=CC(=O)C=C[C@]4(C)[C@@]34O[C@H]4C[C@@]12C	–	224.7	eChemPortal
CCOC(=O)Nc1cccc(O)c1	Carbamic acid, (3-hydroxyphenyl)-, ethyl ester	96	OCHEM
O=C1C=CC(=O)N1c1cccc(C(F)(F)F)c1	1-[3-(Trifluoromethyl)phenyl]-1H-pyrrole-2,5-dione	68	OCHEM
N#Cc1nc(Cl)c(Cl)c(Cl)c1Cl	–	151	OFMPub
C=Cn1cc[n+](C)c1.COS(=O)(=O)[O-]	3-Methyl-1-vinylimidazolium methyl sulfate	48.5	eChemPortal
Cc1cc(N)[nH]c(=O)c1	6-Amino-4-methylpyridin-2(1H)-one	257	OCHEM
CC(=O)C=C(C)N	4-Amino-3-penten-2-one	38.5	OCHEM
O=C(O)c1ccccc1C(=O)N1CCCCC1	Benzoic acid, o-(piperidinocarbonyl)-	110	OCHEM
O=S(=O)(NS(=O)(=O)C(F)(F)C(F)(F)C(F)(F)C(F)(F)F)C(F)(F)C(F)(F)C(F)(F)C(F)(F)F	Bis(1,1,2,2,3,3,4,4,4-nonafluoro-1-butanesulfonyl)imide	120.7	ChemicalBook
O=C(O)c1cc(-c2cccnc2)nc2ccccc12	Cinchoninic acid, 2-(3-pyridyl)-	324	OCHEM
CCCCCC1CCC(c2ccc(OCC)c(F)c2F)CC1 (stereo not drawn)	1-Ethoxy-2,3-difluoro-4-(4-pentylcyclohexyl)benzene	49.35	eChemPortal
ClCc1nc(-c2cccnc2)no1	3-[5-(Chloromethyl)-1,2,4-oxadiazol-3-yl]pyridine	88	OCHEM
Oc1ccc(Oc2ccccn2)cc1	4-[(Pyridin-2-yl)oxy]phenol	143	OCHEM
O=C(O)c1cc([N+](=O)[O-])ccc1I	2-Iodo-5-nitrobenzoic acid	195	OCHEM

7 of these entries, quoted again:

compound	name	melting point (°C)	via
O=C(O)c1cc(-c2cccnc2)nc2ccccc12	Cinchoninic acid, 2-(3-pyridyl)-	324	OCHEM
CC(=O)OCC(=O)[C@@]12OC(C)(C)O[C@@H]1C[C@H]1[C@@H]3CCC4=CC(=O)C=C[C@]4(C)[C@@]34O[C@H]4C[C@@]12C	–	224.7	eChemPortal
CCCCCCC(O)CCCCCCCCCCC(=O)[O-].CCCCCCC(O)CCCCCCCCCCC(=O)[O-].[Zn+2] (stereo not drawn)	Octadecanoic acid, 12-hydroxy-, zinc salt (2:1)	150	eChemPortal
Cc1cc(N)[nH]c(=O)c1	6-Amino-4-methylpyridin-2(1H)-one	257	OCHEM
O=C(O)c1ccc2c(c1)C(=O)N(CC1CCCO1)C2=O (stereo not drawn)	–	154	OCHEM
C=CCOc1ccccc1C(=O)O	2-(allyloxy)benzoic acid	59	OCHEM
CCN(CC)CCC1(c2ccccc2)CCC(=O)NC1=O (stereo not drawn)	Phenglutarimide	126	OCHEM

From the experimental data distributed with OPERA 2.9.